Measurements taken from PubChem BioAssay AID652008 (The Scripps Research Institute Molecular Screening Center, 2013).
The list shows a part of the results, in another mix than the full data. Activity calls are given as the source filed them.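 The calls were made as follows: active = mean inhibition above 46.5%, the solvent-only control mean plus 3 SD; inactive = the rest.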

Amino acid sequences for entries named in this document (tags omitted). A change or cut given only in a name is not applied to a line headed by its entry.
UniProt Q15596: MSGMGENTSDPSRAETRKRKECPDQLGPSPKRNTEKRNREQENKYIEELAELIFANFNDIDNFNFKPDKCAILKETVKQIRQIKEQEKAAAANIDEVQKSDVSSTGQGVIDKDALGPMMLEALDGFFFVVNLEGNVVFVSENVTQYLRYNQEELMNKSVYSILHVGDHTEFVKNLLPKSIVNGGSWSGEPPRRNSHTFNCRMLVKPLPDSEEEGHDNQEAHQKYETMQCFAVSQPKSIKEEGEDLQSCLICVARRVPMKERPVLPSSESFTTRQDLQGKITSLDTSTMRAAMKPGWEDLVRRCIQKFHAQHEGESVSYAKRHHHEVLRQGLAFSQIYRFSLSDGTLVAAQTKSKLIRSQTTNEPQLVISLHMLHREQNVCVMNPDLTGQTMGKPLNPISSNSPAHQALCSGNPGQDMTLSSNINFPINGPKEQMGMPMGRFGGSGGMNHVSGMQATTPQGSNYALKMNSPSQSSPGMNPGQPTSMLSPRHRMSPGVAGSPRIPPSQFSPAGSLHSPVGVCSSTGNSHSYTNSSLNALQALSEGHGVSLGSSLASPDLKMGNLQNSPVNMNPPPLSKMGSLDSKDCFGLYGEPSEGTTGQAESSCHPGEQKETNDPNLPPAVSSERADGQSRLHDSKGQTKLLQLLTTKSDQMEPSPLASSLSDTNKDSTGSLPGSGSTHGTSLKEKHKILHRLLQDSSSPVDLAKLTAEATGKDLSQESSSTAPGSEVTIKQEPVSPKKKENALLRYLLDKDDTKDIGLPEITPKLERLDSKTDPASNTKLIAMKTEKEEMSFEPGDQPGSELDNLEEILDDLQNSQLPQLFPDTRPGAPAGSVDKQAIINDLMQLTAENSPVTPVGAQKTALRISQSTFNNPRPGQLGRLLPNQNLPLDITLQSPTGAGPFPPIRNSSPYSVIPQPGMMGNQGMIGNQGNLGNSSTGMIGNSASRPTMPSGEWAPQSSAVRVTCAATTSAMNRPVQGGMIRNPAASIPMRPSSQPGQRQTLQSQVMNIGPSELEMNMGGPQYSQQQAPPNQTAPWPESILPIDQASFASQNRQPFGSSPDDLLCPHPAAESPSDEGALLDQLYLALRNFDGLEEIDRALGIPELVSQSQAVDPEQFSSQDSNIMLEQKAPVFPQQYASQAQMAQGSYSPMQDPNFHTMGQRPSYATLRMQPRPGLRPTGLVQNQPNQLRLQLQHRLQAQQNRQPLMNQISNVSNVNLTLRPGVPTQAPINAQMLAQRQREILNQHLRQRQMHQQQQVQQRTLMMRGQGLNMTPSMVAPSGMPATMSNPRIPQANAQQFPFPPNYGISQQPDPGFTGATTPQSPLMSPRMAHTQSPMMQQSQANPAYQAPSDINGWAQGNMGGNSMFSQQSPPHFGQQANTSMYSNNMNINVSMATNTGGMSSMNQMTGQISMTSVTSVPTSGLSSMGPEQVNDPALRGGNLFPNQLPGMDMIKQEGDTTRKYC

Each molecule was assayed against Nuclear receptor coactivator 2 (Homo sapiens) (UniProt Q15596) (assay: inhibition of GAL4-SRC2 driven luciferase expression – cell-based, luminescence, HEK293, triplicate, confirmation (AID 652008;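 also: 0% = DMSO-treated cells and 100% = Gossypol at 36 µM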)). Conditions: HEK293 GAL4-SRC2 luciferase reporter, at 8.9 µM, stronger effect = higher value.

SMILES	inhibition
C[N+]1=C2C=CC=CC=C2SC12C([N+](=O)[O-])=CC([N+](=O)[O-])=C[C-]2[N+](=O)[O-] (stereo unspecified)	active: 99%
